In PubChem BioAssay (EPA / NIEHS):
The list shows a part of the results, in another mix than the full data. Activity calls are given as the source filed them. How the source made its calls: active means hit-call score of the fitted dose curve at least 0.9, where 1 is the maximum; inactive means score below 0.9.

assay: ATG_PPRE_CIS: Attagene CIS-FACTORIAL HepG2 Assay for human Peroxisome Proliferator-activated Response Element (PPRE) (AID 2282958); conditions: HepG2 PPRE cis-element reporter, Attagene transcription factor profiling; actives raise or lower the signal

Row | Structure (SMILES) | outcome | AC50
1 | CC(=O)CCc1ccccc1 | inactive | –
2 | c1cc(N(CC2CO2)CC2CO2)ccc1OCC1CO1 (centres undefined) | inactive | –
3 | N=c1ccn2c(n1)O[C@H]1[C@H](O)[C@@H](CO)O[C@H]12 | inactive | –
4 | O=C1CCCCCCCCCCC(=O)OCCO1 | inactive | –
5 | CC1(C)O[C@@H]2[C@@H](CO[C@@]3(COS(N)(=O)=O)OC(C)(C)O[C@@H]23)O1 | inactive | –
6 | COC(C)CCO (centres undefined) | inactive | –
7 | CCN(CC)c1ccc(C(=O)c2ccccc2C(=O)O)c(O)c1 | – | active: 47 µM
8 | C[Si](C)O[Si](C)(C)O[Si](C)(C)O[Si](C)C | inactive | –
9 | CC(C)c1ccc2cc(C(C)C)ccc2c1 | – | active: 73.3 µM
10 | CC(C#N)(CCC(=O)O)N=NC(C)(C#N)CCC(=O)O (centres undefined) | inactive | –
11 | CC(=O)Nc1ccc(CC(=O)O)cc1 | inactive | –
12 | CCCCCC=CCC(=O)OC | inactive | –
13 | O=C1OC(c2ccc(O)cc2)(c2ccc(O)cc2)c2ccccc21 | – | active: 24.8 µM
14 | O=C(O)Cn1c(=O)n(Cc2ccc(Br)cc2F)c(=O)c2ccc(Cl)cc21 | – | active: 2.9 µM
15 | N#CC1(N)CCCCC1 | inactive | –
16 | CC(C)OCCO | inactive | –
17 | CCCCOCCOCCO | inactive | –
18 | CCCC(CC)c1ccccc1 (centres undefined) | inactive | –
19 | Cc1ccc(C(C)(C)C)c(O)c1 | inactive | –
20 | Cc1nccn1-c1ccc(Sc2cccc(C3(C(N)=O)CCOCC3)c2)cc1 | inactive | –

Row | Structure (SMILES) | outcome | AC50
21 | C[C@H](CCC(=O)NCC(=O)O)[C@H]1CC[C@H]2[C@@H]3[C@H](O)C[C@@H]4C[C@H](O)CC[C@]4(C)[C@H]3C[C@H](O)[C@]12C | inactive | –
22 | CC=CC(=O)N(CC)c1ccccc1C | inactive | –
23 | CC1=CC[C@@]23C[C@@H]1C(C)(C)[C@@H]2CC[C@H]3C | inactive | –
24 | CCCCCCC(C)(C)S | inactive | –
25 | CCCCCC(=O)OCCc1ccccc1 | inactive | –
26 | CCCCC(CC)C(=O)OC(C)C (centres undefined) | inactive | –
27 | CCCCCCCCC(CO)CCCCCC (centres undefined) | inactive | –
28 | O=C(O)c1cc(Cl)cc([N+](=O)[O-])c1Cl | inactive | –
29 | CC1(C)CC(N=C=O)CC(C)(CN=C=O)C1 (centres undefined) | inactive | –
30 | CCOCCO | inactive | –
31 | C=CC(=O)OCCCCCCCCCC | inactive | –
32 | OC[C@@H](O)[C@H](O)[C@@H](O)[C@@H](O)CO | inactive | –
33 | CC[N+](CC)(CC(=O)Nc1c(C)cccc1C)Cc1ccccc1 (tested in a mixture with another compound) | inactive | –
34 | S=C([S-])NCCNC(=S)[S-].[Mn+2] | inactive | –
35 | COc1c2ccoc2cc2oc(=O)ccc12 | inactive | –
36 | Cc1ccc(N/N=c2\c(=O)cc/c(=N/Nc3ccc(S(=O)(=O)O)cc3)c2=O)c(C)c1 | inactive | –
37 | COCCCOc1ccnc(CS(=O)c2nc3ccccc3[nH]2)c1C (centres undefined) | inactive | –
38 | CCCCCCCCCO | inactive | –
39 | O=C1O[C@@H]2[C@@H](O)[C@H](O)O[C@@H]2[C@H]1O | inactive | –
